PMC4199474, “Assessment of Pharmacokinetics and Toxicology of Sadat-Habdan Mesenchymal Stimulating Peptide (SHMSP) in Rats and Goats” (International Journal of Biomedical Science : IJBS, 2014)
Like-named read-outs stand apart in the source and are kept apart here.

Assays:
[1] = assay type: in vivo; details: male Sprague Dawley rats, 5 mg/kg i.m.; for Average conc. of peptide in plasma: HPLC-UV 215 nm, mean of n = 3
Description: (§1) Ninety (90) Sprague Dawley adult male rats and twenty adult male goats were acquired and identified by markings and were acclimated to the study environment for 16-21 days prior to dose administration. Animals were individually housed in suspended wire caging, and were kept on a 12 h / 12 h light/dark cycle except when interrupted for study procedures. Average room temperature was regulated in the range 18 to 29°C, average relative humidity of 30-70%, and an average daily airflow >10 fresh air changes/h. Animals were fed Lab Diet Certified Rodent Diet 5002 Meal food ad libitum, except during fasting prior to dose administration, and had access to water ad libitum.
In 90 skeletally mature male Sprague Dawley rats 5 milligram/kg body weight SHMSP was injected intramuscularly. Blood samples from the treated rats were collected after different time interval such as 30, 60, 120, 180, 240, 360, 480 and 1440 minutes. Samples from non-injected group were collected as control samples. Blood was transferred into heparinized tubes, the protease inhibitor then immediately added. The samples were stored at −80°C until analysis.
Primary stock solution of standard was prepared by dissolving lyophilized standard compound in deionized water to get a concentration of 1000 ng/mL and stored at -20°C. Working standard solutions were prepared by serially diluting the stock solution in deionized water to obtain the linear concentrations 250, 125, 62.5, 31.25 and 15.625 ng/mL. The plasma calibration curves were prepared at concentrations of 6.25, 3.12, 1.56, 0.78 and 0.39 ng/mL by spiking 190 µL of rat plasma with 10 µL of working standard and 200 µL of deionized water at an appropriate concentration (to make up to 400 µL of total sample volume). All these procedures were conducted on ice. Samples were vortexed for five seconds, centrifuged at 14000 rpm for 30 minutes at 4°C and the supernatant was collected for the analysis. Rat plasma samples were collected from the treated rats at different time points and prepared the samples for analysis.
Acetonitrile (HPLC grade, Fischer Scientific) and Milli-Q water was used for the analysis. Analysis was performed using HPLC Waters 2535 quaternary gradient module system with Waters 2489 UV detector and Waters 2707 auto-sampler. Separations were carried out on a Waters BioSuite C18 analytical column (4.6 × 250 mm) connected to a guard (3.9 × 20 mm) column and the system was operated at an ambient temperature. The column was equilibrated with 76% eluent A (water) and 24% eluent B (acetonitrile) with both containing 0.1% trifluoroacetic acid at a flow rate of 1.0 mL/min as mobile phase. After injection of 20 µL sample, the peptide was eluted with 15ml linear gradient up to 36% of eluent A. The time between injections was 25 min. and the eluent was monitored at a wavelength of 215 nm. Plasma was isolated, processed and 20 μL was injected to HPLC system. The concentrations obtained after three animals injections have been tabulated as Run 1, Run 2 and Run 3 (Table 1). The concentration of peptide present in the rat plasma samples collected at different time intervals were quantified using standard curve method. The unknown concentrations of peptide present in the plasma samples were calculated applying the value of peak area in the equation obtained from the standard curve (Figure 1). Data shown are mean ± SD (n=3).
There were no deaths is either of the study group or in control animals. Blood samples from the treated rats were collected after different time interval at 0, 30, 60, 120, 180, 240, 360, 480 and 1440 minutes (24 hours). Samples from non-injected group were collected as control samples. Plasma was isolated, processed and 20 uL was injected to HPLC system. The peak areas obtained for the three different animals has been tabulated (Table 1). […]

goats = assay: Toxicology after deep intramuscular injection in goats (clinical observation, gross organs, histopathology); assay type: in vivo, goat
Description: as §1
(§2) The goats were injected deep intramuscularly 100 mg/kg body weight of the SHMSP dissolved in injection solution. In 10 Sprague Dawley rats of over 250 grams 20 mg/kg/day for 7 consecutive days was injected. All the animals were kept at a close watch. Clinical observation at least once daily and as necessary was undertaken. After 2 weeks animals were euthanized and major organs were harvested and histopathology samples were obtained and sent for histopathological studies.
(§3) Ten goats were injected deep intramuscularly 100 mg/kg body weight of the SHMSP dissolved in injection solution. In 10 Sprague Dawley rats of over 250 grams 20 mg/kg/day for 7 consecutive days was injected. All the animals were kept at a close watch. Clinical observation at least once daily and as necessary was undertaken. After 2 weeks animals were euthanized and liver, kidneys, spleen, brain, heart and intestines were harvested and sent for histopathological studies.

Sprague Dawley rats = assay: Toxicology after 7 consecutive daily injections in rats (clinical observation, gross organs, histopathology); assay type: in vivo; details: 20 mg/kg/day for 7 consecutive days
Description: as §1, §2, §3

[2] = cited from earlier work

Substance	Average conc. of peptide in plasma ([1]; plasma 30 min after injection) [ng/mL]	Average conc. of peptide in plasma ([1]; plasma 60 min after injection, 5 mg/kg) [ng/mL]	Average conc. of peptide in plasma ([1]; plasma 120 min after injection) [ng/mL]	Average conc. of peptide in plasma ([1]; plasma 180 min after injection) [ng/mL]	Average conc. of peptide in plasma ([1]; plasma 240 min after injection) [ng/mL]	Time the peptide remained in the circulation ([1]; plasma, HPLC-UV) [min]	Half of the initial plasma concentration, reached at 90 min ([1]; half of the 30 min concentration, read on the plot at 90 min) [ng/mL]	Toxicity at 20 times the recommended (therapeutic) dose (goats; 100 mg/kg i.m. (20 times the recommended 5 mg/kg), major organs)	Gross observations of the various organs (goats; goats (non-rodent), 100 mg/kg body weight deep i.m., euthanized after 2 weeks)	Histopathological studies of organs (liver, kidneys, spleen, brain, heart, intestines) (goats; goats (non-rodent), 100 mg/kg body weight deep i.m., euthanized after 2 weeks, H & E)	Deaths (goats; goats, 100 mg/kg body weight deep i.m., observed 2 weeks)	Deaths (Sprague Dawley rats; Sprague Dawley rats over 250 g, observed 2 weeks)	Gross observations of the various organs (Sprague Dawley rats; Sprague Dawley rats, euthanized after 2 weeks)	Histopathological studies of organs (liver, kidneys, spleen, brain, heart, intestines) (Sprague Dawley rats; Sprague Dawley rats, euthanized after 2 weeks, H & E)	Half-life in the circulation [2]
Sadat-Habdan Mesenchymal Stimulating Peptide [SHMSP]	2.3184	1.7447	0.6169	0.1114	0.0939	180	1.16	did not cause any toxic effects	appeared normal	did not show any toxicity	no deaths	no deaths	appeared normal	did not show any toxicity	–
Vasculo endothelial growth factor [VEGF]	–	–	–	–	–	–	–	–	–	–	–	–	–	–	under 90 minutes
